According to US12410231B2, “Natural killer cell products and methods” (Board of Regents of The University of Texas System, priority 2018, dated 2025):

What was measured:
OE19 = experiment: ADCC / co-culture with OE19 (IncuCyte); assay type: cell-based; details: 0E19
Method: FIGS. 19A-19D Enhancing NK cell anti-tumor efficacy by antibody-dependent cellular cytotoxicity. […] SKOV3 (RFP, red) proliferation were measured by live-cell imaging using an IncuCyte imager. After 72 h, SKOV3 killing was calculated relative to tumor cells alone. […] Two-way ANOVA was used to do comparison. P<0.0001. After 72 h of co-culture SKOV3RFP proliferation was measured by IncuCyte (FIG. 19C). After 71 h, co-culture with different transduced NK cells OE19GFP proliferation was measured by IncuCyte. Two-way ANOVA were used do comparison. P<0.01. (FIG. 19D)
Cytotoxicity was measured by luciferase activity assay 24 hrs later following the manufacturer's protocols. The findings are reported as specific lysis relative to THP-1 or other tumor cell targets. Additional co-culture assays were analyzed by flow cytometry for the frequency of tumor cells GFP+ populations. In some long term assays, gene modified NKs were co-cultured with tumor cell targets either labeled with eGFP or RFP for 7 days in the presence of 200 U/ml IL-2. Tumor cells growths were monitored by real-time fluorescent microscopy (IncuCyte; Essen Biosciences).
Antibody-dependent cell-mediated cytotoxicity (ADCC) is one of the mechanisms by which NK cells are involved in tumor cells killing. […]

SKOV3 = experiment: ADCC / co-culture with SKOV3 (IncuCyte); assay type: cell-based

Substance: Herceptin: a monoclonal antibody; tested against HER2+ tumor cells
- effect of Herceptin on iMC.HER2CAR.ζ cytotoxicity (OE19): did not affect
- effect of Herceptin on iRC9 NK cell-mediated tumor target killing (SKOV3; 300 ng/ml Herceptin): improved NK cell-mediated tumor target killing
- synergy of Herceptin Rimiducid combination treatments (SKOV3; 300 ng/ml Herceptin and 1 nM rimiducid): little synergistic effects
- effect of Herceptin on iMC.HER2CAR.ζ cytotoxicity (SKOV3; SKOV3): did not affect
